Reference: paper PMC7618200 (The Biochemical journal, 2025)

By UniProt entry, the sequences of proteins in these tests, tags left out. Residues count along the entry.
UniProt O43791, 28-166: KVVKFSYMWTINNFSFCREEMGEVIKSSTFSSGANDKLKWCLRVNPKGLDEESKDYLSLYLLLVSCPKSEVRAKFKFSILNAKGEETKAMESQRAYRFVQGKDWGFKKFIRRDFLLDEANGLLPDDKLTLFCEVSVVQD

Target: T1, SPOP^MATH (SPOP MATH domain) (Homo sapiens, UniProt O43791)
T1 construct: bacterially expressed SPOP protein (SPOP^MATH); hexahistidine-MBP (with HRV 3C site) (N, cleaved yes); made in house; host or cells: E. coli BL21 (DE3); tracer peptide synthesized by Peptide Synthetics
Test: FP competition assay: unlabelled peptide versus Puc-5Flu peptide on SPOP^MATH
Type: binding
Experimental: Peptides and SPOP^MATH protein were diluted in FP buffer (50 mM HEPES pH 7.5, 100 mM NaCl, 1 mM TCEP, 0.005% Tween-20). Measurements were made in 384-well black flat-bottom low-flange plates (Corning) using 20 μl reaction volumes. Plates were equilibrated at room temperature for 30 minutes before reading. Millipolarization (mP) measurements were taken in a Hidex Sense microplate reader (Hidex) at 25°C, with excitation at 490 nm (20 nm filter), emission at 520 nm (14 nm filter), and a G-factor of 1.
The technical duplicate mP values were averaged, and error bars represent standard deviation. Data were plotted and analyzed using Prism 9 software. […] IC50 values from three independent experiments were averaged and the standard deviation was calculated.

IC50: 5.3 ± 1.2 µM
Compound: CSCC[C@H](NC(=O)[C@H](CC(N)=O)NC(=O)[C@@H](N)CC(N)=O)C(=O)N1CCC[C@H]1C(=O)N[C@H](C(=O)N[C@@H](CCC(N)=O)C(=O)N[C@@H](Cc1c[nH]c2ccccc12)C(=O)N[C@@H](CC(N)=O)C(=O)N[C@@H](CCC(=O)O)C(=O)N[C@H](C(=O)N[C@@H](CO)C(=O)N[C@@H](CO)C(=O)NCC(=O)N[C@H](C(=O)N[C@H](C(=O)N[C@@H](CC(=O)O)C(=O)N[C@@H](C)C(=O)O)C(C)C)[C@@H](C)O)C(C)C)C(C)C
